Literature values as cited in the CATMoS acute toxicity set (Mansouri et al. 2021).

Test: rat acute oral toxicity
Settings: in vivo

SMILES | LD50
CCOP(O)(=S)CC (stereo unspecified) | 600 mg/kg
CC(C)N(CCCl)C(C)C | 96.8 mg/kg
O=[N+]([O-])C(F)(COCOCC(F)([N+](=O)[O-])[N+](=O)[O-])[N+](=O)[O-] | 2400 mg/kg
CP(=O)(O)O | 2300 mg/kg
Cc1cc([N+](=O)[O-])cc([N+](=O)[O-])c1 | 216 mg/kg
Cc1ccc([N+](=O)[O-])c([N+](=O)[O-])c1 | 807 mg/kg
CCCP(=O)(O)OCC | 2300 mg/kg
CCO[PH](=S)OCC | 200 mg/kg
CC(C)N(CCO)C(C)C | 860 mg/kg
[C-]#N.[Na+] | 6.44 mg/kg
CB1P(C)B(C)P(C)B(C)P1C (stereo unspecified) | 13.5 mg/kg
CN(C)CCCl | 238 mg/kg
CC(C)OP(OC(C)C)OC(C)C | 167 mg/kg
OCCSCCO | 6610 mg/kg
O=[N+]([O-])c1cc([N+](=O)[O-])c(O)c([N+](=O)[O-])c1 | 200 mg/kg
CC(C)O[PH](=O)OC(C)C | 1700 mg/kg
[C-]#N.[Cu+] | 1260 mg/kg
CCOP(=O)(O)CC | 2110 mg/kg

SMILES | LD50
O=[N+]([O-])OCC(O)CO[N+](=O)[O-] | 1060 mg/kg
CCCSP(C)SCCC | 2.24 mg/kg
[O-][n+]1onc2c1c1no[n+]([O-])c1c1no[n+]([O-])c21 | 2880 mg/kg
O=[N+]([O-])OCC1CO1 (stereo unspecified) | 460 mg/kg
O=[N+]([O-])OCC(CO)O[N+](=O)[O-] (stereo unspecified) | 1420 mg/kg
CO[N+](=O)[O-] | 344 mg/kg
Cc1c([N+](=O)[O-])cccc1[N+](=O)[O-] | 177 mg/kg
CC(C)OP(C)(=O)O | 6070 mg/kg
CCC(=O)N(c1ccccn1)C(C)CN1CCCCC1 (stereo unspecified) | 1290 mg/kg
O=[N+]([O-])C(F)(COCC(COCC(F)([N+](=O)[O-])[N+](=O)[O-])(N(F)F)N(F)F)[N+](=O)[O-] | 812 mg/kg
N=C(N)N[N+](=O)[O-] | 10200 mg/kg
[Ag+].[C-]#N | 123 mg/kg
O=C(O)CCC([N+](=O)[O-])([N+](=O)[O-])[N+](=O)[O-] | 708 mg/kg
CC(CO[N+](=O)[O-])(CO[N+](=O)[O-])CO[N+](=O)[O-] | 1030 mg/kg
CC(CO[N+](=O)[O-])O[N+](=O)[O-] (stereo unspecified) | 250 mg/kg
CCN(CC)CCCl | 17 mg/kg and 50 mg/kg
CP(Cl)Cl | 830 mg/kg
Cc1cccc([N+](=O)[O-])c1[N+](=O)[O-] | 911 mg/kg

“And” between values parts separate entries of the source, which are not always exact repeats. Equal values may be shown once.
